In paper PMC3326523 (Cell, 2012):

Target: BRD4(2), second bromodomain of BRD4 (human, UniProt O60885 333-460)
Experiment: ITC; peptide (mM stock) titrated into bromodomain (about 50 μM), by the concentrations in the tables; 10 or 15°C, 50 mM HEPES pH 7.5, 150 mM NaCl; single binding site model
Conditions: both partners purified

- Kd: 170 ± 10.1 µM
- stoichiometry N: 1.01 ± 0.122
Binder: IQGITKPAIRRY (acetyl-lysine at K31 (residue 6 of the peptide)) [H4K31 peptide IQGITKacPAIRRY]
